The text below walks through data of patent publication US9376424B2, “Methods for treating post traumatic stress disorder” (AZEVAN PHARMACEUTICALS, INC., priority 2010, dated 2016).

Amino acid sequences for entries named in this document (tags omitted).
UniProt P37288, whole entry: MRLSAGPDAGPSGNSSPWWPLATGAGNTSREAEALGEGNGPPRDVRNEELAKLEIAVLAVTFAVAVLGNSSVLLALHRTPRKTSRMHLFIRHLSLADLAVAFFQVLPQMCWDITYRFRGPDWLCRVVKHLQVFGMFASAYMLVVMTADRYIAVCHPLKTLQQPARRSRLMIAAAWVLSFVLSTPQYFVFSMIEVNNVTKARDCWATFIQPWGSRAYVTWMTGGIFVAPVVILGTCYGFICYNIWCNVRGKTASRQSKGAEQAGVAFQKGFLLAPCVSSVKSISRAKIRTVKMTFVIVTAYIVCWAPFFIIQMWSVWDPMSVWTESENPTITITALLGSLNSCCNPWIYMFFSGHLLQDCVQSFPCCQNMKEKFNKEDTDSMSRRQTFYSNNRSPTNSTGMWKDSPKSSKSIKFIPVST

One may read the IC50 as the point on the concentration scale where inhibition reaches its midpoint. For orientation: Ki means a dissociation constant, usually derived from enzyme kinetics or from competition with a known ligand.

One experiment has as its target human V1a receptor (Homo sapiens, UniProt P37288). Description: Human vasopressin V1a receptor binding assay (3H-AVP competition, hV1a cell line). The conditions noted are these: CHO cells expressing human V1a, 1 nM 3H-AVP; for IC50: read-out: V1a Binding Affinity IC50; for Ki: read-out: V1a Ki.
Another experiment deals with resident male rats. The experiment can be described thus: Resident-Intruder Model of Stress and Aggression in Rats (neuroimaging). To be noted: male residents; tested form: HCl.

As to `O=C(NCc1cccc(C(F)(F)F)c1)[C@H](CCC(=O)N1CCN(N2CCCC2)CC1)N1C(=O)[C@@H](N2C(=O)OC[C@@H]2c2ccccc2)[C@H]1/C(Cl)=C/c1ccccc1`, at human V1a receptor, the IC50 is 11 nM and the Ki was determined as 6.71 nM.

Regarding `O=C(N[C@@H]1CCCc2ccccc21)[C@H](CCC(=O)N1CCN(C2CCCCC2)CC1)N1C(=O)[C@@H](N2C(=O)OC[C@@H]2c2ccccc2)[C@H]1CCc1ccccc1`, at human V1a receptor, the IC50 was found to be 9 nM and the inhibition constant Ki amounted to 5.5 nM.

As to `CN(Cc1cccc(C(F)(F)F)c1)C(=O)[C@@H](CC(=O)N1CCC(N2CCCCC2)CC1)N1C(=O)[C@@H](N2C(=O)OC[C@@H]2c2ccccc2)[C@H]1/C=C/c1ccccc1`, the “sexual behavior toward receptive females in home cage” value in the experiment on resident male rats was “normal sexual behavior”.
